Measured values taken from ChEMBL document CHEMBL4732189, “A facile synthesis of diaryl pyrroles led to the discovery of potent colchicine site antimitotic agents” (Eur J Med Chem, 2021).

Species on record: Bos taurus
Assay: Potency index, ratio of CA-4 IC50 to test compound IC50 for inhibition of bovine brain tubulin polymerization
Type: tissue-based

With `CCOc1ccc(-c2c[nH]cc2-c2cc(OC)c(OC)c(OC)c2)cc1` as the molecule, how does the Ratio IC50 read?
Its Ratio IC50 is 1.5.

How did the Ratio IC50 turn out when `CCOc1ccc(-c2c[nH]cc2-c2cc(OC)c(OC)c(OC)c2)cc1F` was run?
Its Ratio IC50 is 1.5.

For `CCOc1ccc(-c2c[nH]cc2-c2cc(OC)c(OC)c(OC)c2)cc1Cl`, which Ratio IC50 is on record?
The Ratio IC50 was 1.5.
